Vif inh: inhibitors of HIV Vif. HEK293T cells, Vif self-association by quenched fluorescence, imaging, 24 h. inhibition, % at 7.49 µM. 0.35% of 340,000 active. AID 602346; in the data active = inhibition above about 50%, passing the limit was not always enough
Yeast UUG start: modulators of start codon recognition fidelity in yeast; S. cerevisiae UUG-firefly luciferase reporter, luminescence/redox ratio; AID 602363; 350,000 tested, 0.13% active; activity score, % at 18.7 µM;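 active = replicate mean at a twofold rise or more, about +100% in these data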;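 also: firefly luciferase made from a UUG start codon reports start codon fidelity; reporter light over untreated wells divided by growth signal over untreated wells; some hits fall short of that in this replicate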
CAL PDZ FP-1: inhibitors of human CAL PDZ peptide binding. Q9HD26. purified CAL PDZ, TMR-peptide fluorescence polarization, 1 h. inhibition, % at 24.9 µM. 0.92% of 300,000 active. AID 602252;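 active = mean inhibition of at least 30% with at least half of replicates also reaching 30%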
PglD inh: blocks C. jejuni PglD acetyltransferase activity; purified PglD enzyme, DTNB colorimetric CoA detection; inhibition, % at 12.5 µM; 0.098% of 360,000 active; AID 602405; in the data active = inhibition above about 16%, passing the limit was not always enough
CAL PDZ FP-2: human CAL PDZ-peptide interaction inhibition; Q9HD26; purified CAL PDZ, TMR-peptide fluorescence polarization, 1 h; inhibition, % at 20 µM; 0.02% of 330,000 active; AID 504414;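 active = highest replicate inhibition of at least 40%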
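material = purified tagged CAL PDZ domain construct (CerCALP) | buffer or medium = sodium phosphate/NaCl buffer pH 7.4 with TCEP, IgG, Thesit | reagent = TMR-labelled reporter peptide T*-PRC34 bound in PDZ groove | incubation = 1 h room-temperature incubation prior to read | measured by = fluorescence polarization (mP) | evaluation = percent inhibition from loss of millipolarization | control set = unlabelled peptide and DMSO controls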
ARNT-TACC3 inh: disrupts binding between human ARNT and TACC3. Q9Y6A5. AlphaScreen His-ARNT PAS-B/GST-TACC3 binding, luminescence; TACC3 fragment carries E629A point mutation. inhibition, % at 9.99 µM. 0.66% of 390,000 active. AID 623870;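 active = mean inhibition of replicates at least 50% and at least half of replicates each reaching 50%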
A number is an active result; – = inactive; · = no result given; + = active, no number. Hits are enriched below; roughly 1.6% of the tested compounds scored in any of these assays.

SMILES	Vif inh	Yeast UUG start	CAL PDZ FP-1	PglD inh	CAL PDZ FP-2	ARNT-TACC3 inh
COC(=O)C1=CN(Cc2ccc(OC)cc2)C=C(C(=O)OC)C1c1cc(OC)c(OC)c(OC)c1	–	–	–	–	–	active
CN(C)c1ccc(/C=C2\SC(=O)N(CCc3nnc(N)s3)C2=O)cc1	96	·	–	·	–	–
C[C@@H]1CN([C@@H](C)CO)C(=O)Cc2cc(NC(=O)Nc3ccc(F)cc3)ccc2O[C@@H]1CN(C)C(=O)Nc1cccc2ccccc12	·	–	·	–	·	–
CC(C)CC(=O)c1c[nH]c(C(=O)N2CCN(Cc3ccccc3)CC2)c1	–	·	80	·	–	–
CCCNC(=O)c1cc(-c2ccc(Br)cc2)on1	–	–	33	–	–	–
CC(C)NC(=O)c1cc(-c2ccc(Br)cc2)on1	–	–	·	–	–	–
O=C(/C=C/c1ccc(F)cc1)NC(=S)NNC(=O)c1cnccn1	–	·	–	·	–	64
O=C(NC(=S)NNC(=O)c1cnccn1)c1ccc(F)cc1	·	·	–	·	–	68
O=C(/C=C/c1ccccc1)NC(=S)NNC(=O)c1ccco1	–	–	–	–	–	52
COc1ccc(/C=C/C(=O)NC(=S)NNC(=O)c2cnccn2)cc1	–	·	–	·	–	61
CNC[C@@H]1Oc2c(NC(=O)c3cc(C)nn3C)cccc2C(=O)N([C@H](C)CO)C[C@H]1C	·	–	·	–	·	–
CO[C@H]1CN(C)C(=O)c2cc(NC(=O)c3cnccn3)ccc2OC[C@H](C)N(C(C)=O)C[C@H]1C	·	–	·	–	·	–
COc1ccc(C(=O)NNC(=S)NC(=O)c2cccs2)cc1	–	–	–	–	–	–
COc1ccc(/C=C/C(=O)NC(=S)NNC(=O)c2cccs2)cc1	67	·	·	·	–	–
OCC1(Cc2ccc(Cl)cc2)CCN(Cc2ccc(F)c(F)c2)CC1	–	–	66	–	–	–
Cc1ccnc2c1ccc1c(C)ccnc12	–	–	–	–	–	70
Cc1ccnc2c1ccc1ccccc12	–	–	–	–	–	–
Cc1ccnc2c(N3C(=O)C4C5c6ccccc6C(c6ccccc65)C4C3=O)cccc12 (stereo not drawn)	–	–	–	–	–	–
Cc1ccnc2c1ccc1cccnc12	–	–	–	–	–	63
CNC(=O)C[C@H]1CC[C@H]2[C@@H](COc3ccc(NC(=O)Nc4cccc(Cl)c4)cc3C(=O)N2C)O1	·	–	·	–	·	–
C[C@@H]1CCCCO[C@H](CN(C)S(=O)(=O)c2cn(C)cn2)[C@H](C)CN([C@@H](C)CO)C(=O)c2cc(NC(=O)NC3CCCCC3)ccc2O1	·	–	·	–	·	–
CO[C@H]1CN(C)C(=O)c2ccc(NC(=O)C3CC3)cc2OC[C@@H](C)N(C(=O)c2ccncc2)C[C@H]1C	·	·	·	–	·	–
O=C(Nc1cccc(NC(=O)c2cccc(Cl)c2)c1)c1cccnc1	–	–	35	–	–	·
O=C(Nc1nnc(-c2ccccn2)o1)c1cccc(Cl)c1	–	·	–	·	–	52
O=C(Nc1nnc(-c2ccccn2)o1)c1cccc(Br)c1	–	–	–	–	–	–
SMILES	Vif inh	Yeast UUG start	CAL PDZ FP-1	PglD inh	CAL PDZ FP-2	ARNT-TACC3 inh
Cc1ccc(NC(=O)c2cccs2)cc1NC(=O)c1cccnc1	–	·	105	·	–	–
COc1cc(OC)cc(C(=O)Nc2nnc(-c3cccnc3)o2)c1	–	·	–	·	–	62
COc1cccc(-c2nnc(NC(=O)c3cccc(F)c3)o2)c1	–	–	·	–	–	–
Cc1ccc(-c2ccc3c(c2)O[C@@H](CN(C)Cc2ccncc2)[C@H](C)CN([C@@H](C)CO)S3(=O)=O)cc1	·	–	·	–	·	–
NS(=O)(=O)c1ccc(NC(=O)c2cccc(Cl)c2)cc1	–	·	39	·	–	–
NS(=O)(=O)c1ccc(NC(=O)c2cc(Cl)ccc2Cl)cc1	–	–	–	–	–	–
O=C(Nc1nnc(-c2cccnc2)o1)c1cccc(Cl)c1	–	·	–	·	–	52
Cc1cc(C)c2nc3sc(C(=O)N4CCOCC4)c(N)c3cc2c1	67	–	–	–	–	–
Cc1ccc(C)c2nc3sc(C(=O)N4CCOCC4)c(N)c3cc12	–	·	–	·	–	–
O=C(CN1C(=O)C2C3C=CC(C3)C2C1=O)OCC(=O)c1ccc(Cl)cc1 (stereo not drawn)	·	–	74	–	–	–
COc1ccc(NC(=O)Nc2ccc3c(c2)C(=O)N([C@H](C)CO)C[C@H](C)[C@H](CN(C)Cc2ccc4c(c2)OCO4)O3)cc1	·	–	·	–	·	–
Cn1c(NCc2cccnc2)nc2c1c(=O)n(Cc1ccccc1F)c(=O)n2C	–	–	+	–	–	–
COCCNc1nc2c(c(=O)n(Cc3ccccc3F)c(=O)n2C)n1C	–	–	–	–	–	–
Cc1noc(C)c1S(=O)(=O)Nc1ccc2c(c1)C(=O)N([C@@H](C)CO)C[C@@H](C)[C@@H](CN(C)C(=O)CCCN(C)C)OCCCC[C@@H](C)O2	·	–	·	–	·	–
COc1ccc(-c2cnc3c(c2)C(=O)N([C@@H](C)CO)C[C@H](C)[C@@H](CN(C)C(=O)C2CCC2)O3)cc1	·	–	·	–	·	–
Cc1ccccc1C(=O)Nc1ccc(N2CCOCC2)nc1	53	–	–	–	–	–
O=C(NN1CCOCC1)c1ccccc1Br	–	–	–	–	–	·
Cc1ccc(C(=O)Nc2ccc(N3CCOCC3)nc2)cc1	–	–	–	–	–	–
Cc1ccccc1C(=O)NN1CCOCC1	–	·	82	·	–	–
COc1ccc(CC(=O)N/N=C(\C)CC(=O)Nc2ccc3c(c2)OCCO3)cc1OC	–	–	44	–	–	–
COc1ccc(CC(=O)N/N=C(\C)CC(=O)Nc2ccc(N(C)C)cc2)cc1OC	–	·	·	·	–	–
C/C(CC(=O)Nc1ccc2c(c1)OCCO2)=N\NC(=O)COc1ccc(Cl)c(C)c1	–	–	47	–	–	–
O=C(C[C@H]1CC[C@@H]2[C@H](COC[C@@H](O)CN2C(=O)Cc2ccccc2)O1)NC1CCCC1	·	·	·	–	·	–
O=C(OCc1ccccc1)C1CCCN1C(=O)c1ccccc1[N+](=O)[O-] (stereo not drawn)	56	·	–	·	–	–
CC1(C)C(=S)N(Cc2ccccc2)c2ccccc21	–	–	44	–	–	–
CC(=O)CC1(O)C(=O)N(Cc2ccccc2)c2ccccc21 (stereo not drawn)	–	–	–	–	–	–
Cc1noc(C)c1NC(=O)N(C)C[C@@H]1Oc2ccc(NC(=O)Nc3ccc(F)cc3)cc2CC(=O)N([C@H](C)CO)C[C@@H]1C	·	–	·	–	·	–
Cn1c(=O)c2[nH]c(CCc3ccncc3)nc2n(C)c1=O	–	–	54	–	–	–
CCCc1nc2c([nH]1)c(=O)n(C)c(=O)n2C	–	–	–	–	–	–
COc1ccc(O)c(C2=Nc3ccccc3N=C(c3ccco3)C2)c1	–	–	–	–	–	53
